In this test the target is LSD1/CoREST complex (Homo sapiens, UniProt O60341). In words: Inhibition of human LSD1-CoREST expressed in Escherichia coli assessed as dissociation constant.

This passage reports Kd results from ChEMBL document CHEMBL5316272, “Structural and Functional Landscape of FAD-Dependent Histone Lysine Demethylases for New Drug Discovery” (J Med Chem, 2023).

The term Kd denotes a measure of binding affinity in units of concentration. In the case of `COc1cc2nc(NCCCN(C)C)nc(N(C)C)c2cc1OC`, the Kd came to 7.78 µM.
